Assay results published in ChEMBL document CHEMBL5620393, “New aryl and acylsulfonamides as state-dependent inhibitors of Nav1.3 voltage-gated sodium channel” (Eur J Med Chem, 2023).
Activity calls are given as the source filed them. The rule behind the calls is not given here.

By UniProt entry, the sequences of proteins in these tests, tags left out.
UniProt P04775, whole entry, looked up: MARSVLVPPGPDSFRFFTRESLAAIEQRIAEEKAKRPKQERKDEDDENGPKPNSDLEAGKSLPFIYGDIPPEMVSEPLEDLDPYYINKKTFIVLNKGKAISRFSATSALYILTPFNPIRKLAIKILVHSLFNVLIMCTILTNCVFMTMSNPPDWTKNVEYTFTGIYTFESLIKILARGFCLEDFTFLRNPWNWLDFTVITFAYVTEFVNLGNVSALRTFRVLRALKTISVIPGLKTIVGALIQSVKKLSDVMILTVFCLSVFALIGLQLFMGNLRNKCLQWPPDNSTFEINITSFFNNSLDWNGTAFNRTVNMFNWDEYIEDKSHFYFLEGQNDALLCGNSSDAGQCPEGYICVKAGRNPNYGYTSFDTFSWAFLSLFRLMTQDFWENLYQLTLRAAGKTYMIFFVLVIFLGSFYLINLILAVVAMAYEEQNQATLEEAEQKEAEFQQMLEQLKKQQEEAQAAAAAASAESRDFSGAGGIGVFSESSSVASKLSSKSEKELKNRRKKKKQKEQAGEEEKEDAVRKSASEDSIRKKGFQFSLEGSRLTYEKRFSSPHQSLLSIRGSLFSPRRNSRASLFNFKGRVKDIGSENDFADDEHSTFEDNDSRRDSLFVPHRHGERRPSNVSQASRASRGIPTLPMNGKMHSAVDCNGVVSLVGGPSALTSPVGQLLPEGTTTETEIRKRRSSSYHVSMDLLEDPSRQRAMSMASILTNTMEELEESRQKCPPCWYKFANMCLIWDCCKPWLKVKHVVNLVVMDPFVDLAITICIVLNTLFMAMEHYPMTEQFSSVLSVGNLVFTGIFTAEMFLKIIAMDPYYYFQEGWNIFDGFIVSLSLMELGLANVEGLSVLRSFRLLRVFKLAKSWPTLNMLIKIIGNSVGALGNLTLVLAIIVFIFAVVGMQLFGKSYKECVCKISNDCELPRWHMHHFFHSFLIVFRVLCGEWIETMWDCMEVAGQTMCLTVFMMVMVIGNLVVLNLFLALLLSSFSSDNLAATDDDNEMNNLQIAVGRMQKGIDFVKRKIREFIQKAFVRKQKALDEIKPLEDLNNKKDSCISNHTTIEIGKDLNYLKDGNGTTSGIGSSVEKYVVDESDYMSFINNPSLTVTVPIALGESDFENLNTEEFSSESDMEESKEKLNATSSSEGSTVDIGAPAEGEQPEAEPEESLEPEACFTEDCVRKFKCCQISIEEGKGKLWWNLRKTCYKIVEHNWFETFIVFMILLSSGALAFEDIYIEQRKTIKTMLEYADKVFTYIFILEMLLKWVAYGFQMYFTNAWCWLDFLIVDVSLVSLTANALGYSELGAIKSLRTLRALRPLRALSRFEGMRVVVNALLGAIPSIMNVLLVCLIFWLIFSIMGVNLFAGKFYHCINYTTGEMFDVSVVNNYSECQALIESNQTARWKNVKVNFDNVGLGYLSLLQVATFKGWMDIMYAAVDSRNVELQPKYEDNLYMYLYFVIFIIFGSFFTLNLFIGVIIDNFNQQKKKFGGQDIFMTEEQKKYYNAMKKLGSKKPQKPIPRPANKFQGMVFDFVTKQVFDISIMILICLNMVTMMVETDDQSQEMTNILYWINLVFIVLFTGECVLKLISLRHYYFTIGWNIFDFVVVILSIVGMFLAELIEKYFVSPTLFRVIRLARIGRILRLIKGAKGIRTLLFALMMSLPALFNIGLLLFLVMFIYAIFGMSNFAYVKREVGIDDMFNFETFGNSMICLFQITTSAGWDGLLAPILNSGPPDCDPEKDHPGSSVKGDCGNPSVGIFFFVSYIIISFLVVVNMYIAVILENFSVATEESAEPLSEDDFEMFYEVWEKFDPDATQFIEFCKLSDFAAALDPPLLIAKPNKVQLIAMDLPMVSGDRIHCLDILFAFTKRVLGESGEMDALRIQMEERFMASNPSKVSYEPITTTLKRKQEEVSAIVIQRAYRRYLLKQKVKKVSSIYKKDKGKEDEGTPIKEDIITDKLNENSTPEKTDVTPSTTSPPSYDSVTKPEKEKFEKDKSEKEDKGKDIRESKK
UniProt P15390, whole entry: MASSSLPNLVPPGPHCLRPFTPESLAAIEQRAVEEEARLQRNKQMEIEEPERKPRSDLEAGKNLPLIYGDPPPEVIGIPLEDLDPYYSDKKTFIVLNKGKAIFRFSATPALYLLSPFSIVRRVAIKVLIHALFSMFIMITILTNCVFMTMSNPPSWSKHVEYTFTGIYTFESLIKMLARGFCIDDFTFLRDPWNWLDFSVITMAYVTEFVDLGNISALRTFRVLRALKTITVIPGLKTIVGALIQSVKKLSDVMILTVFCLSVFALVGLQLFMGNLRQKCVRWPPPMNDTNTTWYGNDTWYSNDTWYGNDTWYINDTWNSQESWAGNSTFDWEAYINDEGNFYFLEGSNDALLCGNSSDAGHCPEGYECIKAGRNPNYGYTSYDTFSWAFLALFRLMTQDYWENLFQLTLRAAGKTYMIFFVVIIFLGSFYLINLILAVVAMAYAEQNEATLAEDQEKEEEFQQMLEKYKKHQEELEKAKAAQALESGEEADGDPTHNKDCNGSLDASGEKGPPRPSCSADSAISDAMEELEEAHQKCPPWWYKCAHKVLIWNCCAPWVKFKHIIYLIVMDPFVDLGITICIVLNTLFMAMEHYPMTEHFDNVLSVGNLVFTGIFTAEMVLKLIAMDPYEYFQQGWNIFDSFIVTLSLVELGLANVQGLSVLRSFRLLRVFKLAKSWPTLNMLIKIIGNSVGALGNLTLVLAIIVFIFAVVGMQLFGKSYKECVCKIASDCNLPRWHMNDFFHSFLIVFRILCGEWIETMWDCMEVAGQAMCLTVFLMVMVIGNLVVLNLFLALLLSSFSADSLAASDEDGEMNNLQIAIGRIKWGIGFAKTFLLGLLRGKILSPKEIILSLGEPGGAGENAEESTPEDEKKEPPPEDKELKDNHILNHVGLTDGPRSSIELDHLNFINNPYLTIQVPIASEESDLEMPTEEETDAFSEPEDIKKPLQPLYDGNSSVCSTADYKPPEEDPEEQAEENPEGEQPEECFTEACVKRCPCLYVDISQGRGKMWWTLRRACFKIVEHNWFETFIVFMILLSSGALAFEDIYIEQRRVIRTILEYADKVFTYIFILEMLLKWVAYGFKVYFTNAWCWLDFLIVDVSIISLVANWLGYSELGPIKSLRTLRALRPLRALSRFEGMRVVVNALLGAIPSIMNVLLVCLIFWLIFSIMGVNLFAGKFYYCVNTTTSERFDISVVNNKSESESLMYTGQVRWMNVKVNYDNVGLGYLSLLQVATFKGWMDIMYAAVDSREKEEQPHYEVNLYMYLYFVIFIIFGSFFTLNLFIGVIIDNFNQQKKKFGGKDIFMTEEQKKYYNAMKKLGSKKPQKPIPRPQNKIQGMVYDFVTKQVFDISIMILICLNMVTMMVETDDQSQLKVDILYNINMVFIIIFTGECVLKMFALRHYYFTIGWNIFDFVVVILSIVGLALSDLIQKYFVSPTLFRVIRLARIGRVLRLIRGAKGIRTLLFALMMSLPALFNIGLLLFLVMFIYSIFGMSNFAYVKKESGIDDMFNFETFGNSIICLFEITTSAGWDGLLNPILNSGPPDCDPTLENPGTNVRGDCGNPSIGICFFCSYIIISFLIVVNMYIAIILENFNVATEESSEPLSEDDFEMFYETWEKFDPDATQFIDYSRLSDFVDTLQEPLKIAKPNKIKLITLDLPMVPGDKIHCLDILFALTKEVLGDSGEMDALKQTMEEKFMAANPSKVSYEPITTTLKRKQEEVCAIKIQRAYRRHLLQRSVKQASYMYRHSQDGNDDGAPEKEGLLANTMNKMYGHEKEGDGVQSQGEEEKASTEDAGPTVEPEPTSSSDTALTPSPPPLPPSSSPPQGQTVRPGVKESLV
UniProt Q15858, whole entry, looked up: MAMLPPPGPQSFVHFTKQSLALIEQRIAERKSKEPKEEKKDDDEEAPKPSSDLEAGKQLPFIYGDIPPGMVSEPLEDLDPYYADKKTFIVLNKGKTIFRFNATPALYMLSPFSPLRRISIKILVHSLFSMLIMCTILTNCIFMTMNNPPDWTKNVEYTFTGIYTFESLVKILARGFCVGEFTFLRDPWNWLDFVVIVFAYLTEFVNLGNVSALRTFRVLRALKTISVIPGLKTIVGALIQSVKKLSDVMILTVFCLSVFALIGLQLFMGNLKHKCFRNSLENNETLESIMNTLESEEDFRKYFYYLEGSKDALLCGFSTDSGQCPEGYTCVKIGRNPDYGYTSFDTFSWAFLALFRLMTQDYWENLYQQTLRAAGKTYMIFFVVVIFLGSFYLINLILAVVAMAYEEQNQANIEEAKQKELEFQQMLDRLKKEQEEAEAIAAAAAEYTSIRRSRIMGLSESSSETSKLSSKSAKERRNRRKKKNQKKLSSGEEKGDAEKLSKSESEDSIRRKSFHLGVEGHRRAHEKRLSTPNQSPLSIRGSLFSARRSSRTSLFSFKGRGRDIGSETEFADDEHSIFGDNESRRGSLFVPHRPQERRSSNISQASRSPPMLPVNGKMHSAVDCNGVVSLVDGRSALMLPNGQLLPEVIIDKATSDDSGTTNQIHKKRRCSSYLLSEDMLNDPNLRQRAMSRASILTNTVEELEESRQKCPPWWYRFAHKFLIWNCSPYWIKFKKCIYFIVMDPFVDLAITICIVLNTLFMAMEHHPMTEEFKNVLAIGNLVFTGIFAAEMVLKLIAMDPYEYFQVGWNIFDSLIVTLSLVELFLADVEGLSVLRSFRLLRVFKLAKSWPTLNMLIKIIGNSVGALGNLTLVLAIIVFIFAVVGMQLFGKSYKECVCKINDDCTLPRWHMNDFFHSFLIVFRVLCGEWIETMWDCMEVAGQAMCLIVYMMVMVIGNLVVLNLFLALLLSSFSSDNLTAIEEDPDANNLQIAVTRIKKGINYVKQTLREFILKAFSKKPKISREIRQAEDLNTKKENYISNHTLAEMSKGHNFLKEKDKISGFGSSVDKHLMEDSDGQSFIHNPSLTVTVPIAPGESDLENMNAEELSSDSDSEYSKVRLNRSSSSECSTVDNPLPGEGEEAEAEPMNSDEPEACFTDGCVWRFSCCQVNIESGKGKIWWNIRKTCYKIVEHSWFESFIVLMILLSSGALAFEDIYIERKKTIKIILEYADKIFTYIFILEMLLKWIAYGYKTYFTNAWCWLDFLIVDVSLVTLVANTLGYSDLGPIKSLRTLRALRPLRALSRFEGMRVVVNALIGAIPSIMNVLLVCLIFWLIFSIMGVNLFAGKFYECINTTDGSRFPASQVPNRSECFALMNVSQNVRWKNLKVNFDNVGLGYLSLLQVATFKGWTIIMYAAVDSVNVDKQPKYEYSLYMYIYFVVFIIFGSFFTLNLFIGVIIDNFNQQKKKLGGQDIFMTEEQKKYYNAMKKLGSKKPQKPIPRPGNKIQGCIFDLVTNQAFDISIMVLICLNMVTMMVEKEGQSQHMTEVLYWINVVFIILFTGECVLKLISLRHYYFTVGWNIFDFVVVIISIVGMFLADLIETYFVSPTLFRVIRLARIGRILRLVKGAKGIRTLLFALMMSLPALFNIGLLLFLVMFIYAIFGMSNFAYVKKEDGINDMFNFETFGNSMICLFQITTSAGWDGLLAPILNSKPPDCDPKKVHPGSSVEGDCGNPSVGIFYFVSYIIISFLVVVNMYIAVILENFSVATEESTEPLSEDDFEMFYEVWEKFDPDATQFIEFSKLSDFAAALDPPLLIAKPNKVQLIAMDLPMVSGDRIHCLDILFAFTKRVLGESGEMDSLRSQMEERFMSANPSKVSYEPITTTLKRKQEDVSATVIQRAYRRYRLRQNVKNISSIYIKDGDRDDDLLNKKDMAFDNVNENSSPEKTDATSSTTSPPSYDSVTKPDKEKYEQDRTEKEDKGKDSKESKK

Columns and labels:
Format in all cases: cell-based
Conditions in all cases: Oocyte
[1] = target: Sodium channel protein type 8 subunit alpha (Mus musculus) (UniProt Q9WTU3); assay: Inhibition of mouse Nav1.6 expressed in Xenopus laevis oocytes at closed state at 1 uM by two electrode voltage-clamp assay
In short: (§1)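 TEVC on Nav channels expressed in Xenopus laevis oocytes. Each oocyte was injected with 50 nL cRNA at 1 ng/nL and recorded 1–4 days later at 18–22 °C. Bath (mM): NaCl 96, KCl 2, CaCl2 1.8, MgCl2 2, HEPES 5, pH 7.4. Electrodes held 3 M KCl at 0.8–1.5 MΩ. Compound tested at 1 μM. Mean ± SD, n ≥ 5.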

[2] = target: Sodium channel protein type 2 subunit alpha (Rattus norvegicus) (UniProt P04775); assay: Inhibition of rat Nav1.2 expressed in Xenopus laevis oocytes at closed state at 1 uM by two electrode voltage-clamp assay; in short: as §1
[3] = target: Sodium channel protein type 4 subunit alpha (Rattus norvegicus) (UniProt P15390); assay: Inhibition of rat Nav1.4 expressed in Xenopus laevis oocytes at closed state at 1 uM by two electrode voltage-clamp assay; in short: as §1
[4] = target: Sodium channel protein type 1 subunit alpha (Homo sapiens) (UniProt P35498); assay: Inhibition of human Nav1.1 expressed in Xenopus laevis oocytes at closed state at 1 uM by two electrode voltage-clamp assay; in short: as §1
[5] = target: Sodium channel protein type 10 subunit alpha (Homo sapiens) (UniProt Q9Y5Y9); assay: Inhibition of human Nav1.8 expressed in Xenopus laevis oocytes at closed state at 1 uM by two electrode voltage-clamp assay; in short: as §1
[6] = target: Sodium channel protein type 9 subunit alpha (Homo sapiens, UniProt Q15858); assay: Inhibition of human Nav1.7 expressed in Xenopus laevis oocytes at closed state at 1 uM by two electrode voltage-clamp assay; in short: as §1
[7] = target: Sodium channel protein type 3 subunit alpha (Rattus norvegicus) (UniProt P08104); assay: Inhibition of rat Nav1.3 expressed in Xenopus laevis oocytes at 1 uM under inactivated state by two electrode voltage-clamp assay relative to control; in short: as §1

SMILES | inhibition [1] | inhibition [2] | inhibition [3] | inhibition [4] | inhibition [5] | inhibition [6] | inhibition [7] [%]
CS(=O)(=O)NC(=O)c1ccc(NC(=O)c2cc(Br)c(Br)n2-c2ccccc2)cc1 | inactive | inactive | inactive | inactive | inactive | inactive | 
CN(C)S(=O)(=O)NC(=O)c1ccc(NC(=O)[C@@H]2C[C@H]2c2ccccc2)cc1 | inactive | inactive | inactive | inactive | inactive | inactive | 
C[C@H](Oc1ccc(Cl)cc1)C(=O)Nc1ccc(C(=O)NS(C)(=O)=O)cc1 | inactive | inactive | inactive | inactive | inactive | inactive | 
C[C@@H](Oc1ccc(Cl)cc1)C(=O)Nc1ccc(C(=O)NS(=O)(=O)N(C)C)cc1 | inactive | inactive | inactive | inactive | inactive | inactive | 
Cc1nc(-c2c(Cl)cccc2Cl)sc1C(=O)N[C@@H](Cc1ccccc1)C(=O)O | inactive | inactive | inactive | inactive | inactive | inactive | 
CC(=O)NS(=O)(=O)c1ccc(NC(=O)c2cccn2Cc2ccc(Cl)cc2)cc1 | inactive | inactive | inactive | inactive | inactive | inactive | 
CS(=O)(=O)NC(=O)c1ccc(OC[C@@H]2C[C@H]2c2ccccc2)cc1 | inactive | inactive | inactive | inactive | inactive | inactive | 
O=C(Nc1cccc(S(=O)(=O)Nc2nccs2)c1)[C@@H]1C[C@H]1c1ccccc1 | inactive | inactive | inactive | inactive | inactive | inactive | 
C[C@@H](Oc1ccc(Cl)cc1)C(=O)Nc1ccc(C(=O)NS(C)(=O)=O)cc1 | inactive | inactive | inactive | inactive | inactive | inactive | 
CC(=O)NS(=O)(=O)c1ccc(NC(=O)[C@@H]2C[C@H]2c2ccccc2)cc1 | inactive | inactive | inactive | inactive | inactive | inactive | 
CN(C)S(=O)(=O)NC(=O)c1ccc(NC(=O)c2cccn2Cc2ccc(Cl)cc2)cc1 | inactive | inactive | inactive | inactive | inactive | inactive | 
O=C(Nc1ccc(S(=O)(=O)Nc2nccs2)cc1)c1cccn1Cc1ccc(Cl)cc1 | inactive | inactive | inactive | inactive | inactive | inactive | 21
O=C(Nc1ccc(S(=O)(=O)Nc2nccs2)cc1)c1cccn1-c1ccccc1 | inactive | inactive | inactive | inactive | inactive | inactive | 
CN(C)S(=O)(=O)NC(=O)c1ccc(NC(=O)c2cc3ccccc3o2)cc1 | inactive | inactive | inactive | inactive | inactive | inactive | 

More lines, now with the values ahead:

inhibition [1] | inhibition [2] | inhibition [3] | inhibition [4] | inhibition [5] | inhibition [6] | inhibition [7] [%] | SMILES
inactive | inactive | inactive | inactive | inactive | inactive | 21 | O=C(Nc1ccc(S(=O)(=O)Nc2nccs2)cc1)c1cc(Br)c(Br)n1-c1ccccc1
inactive | inactive | inactive | inactive | inactive | inactive |  | O=C(Nc1cccc(S(=O)(=O)Nc2nccs2)c1)c1cccn1Cc1ccc(Cl)cc1
inactive | inactive | inactive | inactive | inactive | inactive |  | CC(=O)NS(=O)(=O)c1ccc(NC(=O)c2cc(Br)c(Br)n2Cc2ccccc2)cc1
inactive | inactive | inactive | inactive | inactive | inactive | 21 | O=C(Nc1ccc(S(=O)(=O)Nc2nccs2)cc1)c1cccn1Cc1ccccc1
inactive | inactive | inactive | inactive | inactive | inactive | 21 | O=C(Nc1ccc(S(=O)(=O)Nc2nccs2)cc1)c1cc(Br)c(Br)n1Cc1ccccc1
inactive | inactive | inactive | inactive | inactive | inactive |  | O=C(Nc1cccc(S(=O)(=O)Nc2nccs2)c1)c1cc(Br)c(Br)n1Cc1ccccc1
inactive | inactive | inactive | inactive | inactive | inactive |  | CS(=O)(=O)NC(=O)c1ccc(NC(=O)c2cc(Br)c(Br)n2Cc2ccccc2)cc1
inactive | inactive | inactive | inactive | inactive | inactive |  | O=C(Nc1cccc(S(=O)(=O)Nc2nccs2)c1)c1cccn1Cc1ccccc1
